# From patent publication US11737461B2, “Citrate perhydrates and uses thereof” (BIOREM ENGINEERING SA, priority 2018, dated 2023)
# Key:
# [1] = pH of an aqueous solution of the compound (pH meter); format: physicochemical
# [2] = below 140° C., nitrogen, 10° C./min
substance,measurement,setting,value
anhydrous disodium citrate monoperhydrate [disodium citrate perhydrate],pH of an aqueous solution,[1]; diluted 20× in water,5.2 (±0.3)
same,pH,[1]; sample solution of Table 13 (0.2 M H2O2 and/or citrate),4.9
same,TGA mass loss,[2],less than 1%
